Measurements reported in ChEMBL document CHEMBL1137664, “Conflicting requirements of Plasmodium falciparum dihydrofolate reductase mutations conferring resistance to pyrimethamine-WR99210 combination” (Antimicrob Agents Chemother, 2007).

Sequences of proteins named here, by UniProt entry; tags and fusion partners are left off.
UniProt Q8I1R6, whole entry N51I/C59R/K96N/S108N/I164L: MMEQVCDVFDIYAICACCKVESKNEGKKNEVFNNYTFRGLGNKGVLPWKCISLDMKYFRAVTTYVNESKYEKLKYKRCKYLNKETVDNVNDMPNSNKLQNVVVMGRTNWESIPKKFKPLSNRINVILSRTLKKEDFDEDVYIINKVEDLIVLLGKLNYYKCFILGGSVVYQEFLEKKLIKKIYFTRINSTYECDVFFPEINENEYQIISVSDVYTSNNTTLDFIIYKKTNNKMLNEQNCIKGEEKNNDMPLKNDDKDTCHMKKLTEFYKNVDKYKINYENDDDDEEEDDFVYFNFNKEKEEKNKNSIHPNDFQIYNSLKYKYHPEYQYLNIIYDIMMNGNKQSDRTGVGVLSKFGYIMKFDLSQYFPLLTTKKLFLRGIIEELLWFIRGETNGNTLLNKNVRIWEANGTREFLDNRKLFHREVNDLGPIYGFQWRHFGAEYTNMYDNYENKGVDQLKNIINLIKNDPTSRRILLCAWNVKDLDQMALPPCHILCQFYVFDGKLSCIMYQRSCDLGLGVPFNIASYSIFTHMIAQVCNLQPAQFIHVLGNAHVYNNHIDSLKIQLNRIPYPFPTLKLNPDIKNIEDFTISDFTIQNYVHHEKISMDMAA

What was measured:
[1] = target: T1, Bifunctional dihydrofolate reductase-thymidylate synthase (Plasmodium falciparum (isolate 3D7), UniProt Q8I1R6, C59R/I164L/K96N/N51I/S108N); test: Inhibition of pyrimethamine-resistant form-2 Plasmodium falciparum N51I, C59R, S108N, I164L, K96N mutant expressed in Escherichia coli BL21(DE3) by Michaelis-Menten based competitive inhibition assay
[2] = target: T1, Bifunctional dihydrofolate reductase-thymidylate synthase; test: Inhibition of pyrimethamine-resistant form-2 Plasmodium falciparum N51I, C59R, S108N, I164L, K96N mutant expressed in Escherichia coli BL21(DE3)

Which results are given for `CCc1nc(N)nc(N)c1-c1ccc(Cl)cc1` [PYRIMETHAMINE]?
Ki [1]: 0.85 nM; IC50 [2]: 2480 nM
